Test results from publication PMC9490236, “Accurate de novo design of membrane-traversing macrocycles” (Cell, 2022).

Key:
[1] = Parallel artificial membrane permeability assay (PAMPA)
[2] = Caco-2 permeability assay (apical to basolateral); type: in vitro ADME, human; settings: average of 3 replicates, read-out: Caco_Papp_Average
Procedure: Human colon adenocarcinoma-derived Caco-2 cell line was used as a model system to investigate the intestinal epithelial permeability of our designs. Caco-2 cells were propagated in T125 flasks (Corning, Merck) using Dulbecco’s modified Eagle medium supplemented with 10% (v/v) fetal bovine serum, 1% (v/v) nonessential amino acids, and 1% (v/v) penicillin-streptomycin (Gibco, Thermo Fisher Scientific) at 37°C in an atmosphere of 5% CO2. Cells were subcultured when they reached 80% confluence.
The permeability of designed peptides was evaluated using an accelerated 6-day Caco-2 permeability assay as described previously ([Sevin et al., 2013]). In brief, cells were seeded into the 12-well Transwell plates with 0.4 μm polyester membrane inserts (Corning, Merck) to give 4.0 × 10^5 cells/well. The complete assay medium contained Dulbecco’s modified Eagle medium supplemented with 10% (v/v) fetal bovine serum, 1% (v/v) nonessential amino acids, and 0.4 μg/mL puromycin. The medium in plates was renewed every second day. […] The peptide concentration of solutions in the apical and basolateral compartments was subsequently quantified using LC-MS (Qstar Elite, AB Sciex Australia) to evaluate the transmembrane flux of peptides in the apical-to-basolateral direction. […]

In the case of CC(C)C[C@@H]1NC(=O)[C@H]2CCCN2C(=O)[C@@H](CC(C)C)NC(=O)[C@@H](CC(C)C)NC(=O)[C@@H](CC(C)C)N(C)C(=O)[C@H](C(C)C)NC(=O)[C@@H](C)NC(=O)[C@@H](C)N(C)C(=O)[C@@H]2CCCN2C1=O (relative stereo) [Design D9.16, PRO *DALA DALA VAL *DLEU DLEU DLEU DPRO LEU], the Papp [1] is reported as 3.27 ×10⁻⁶ cm/s and the Papp A→B [2] is reported as 2.48 ×10⁻⁶ cm/s.
